From PubChem BioAssay (EPA / NIEHS)
This is a selection; strong and weak results do not stand in their true shares. Records with an inconclusive call do not appear. Calls of active or inactive are those of the source. Rule for the calls: active = hit-call score of the fitted dose curve at least 0.9, where 1 is the maximum; inconclusive = response in the unintended direction; inactive = score below 0.9.

By UniProt entry, the sequences of proteins in these tests, tags left out. Where a name states a change or a piece, a line headed by the entry shows the natural chain unless it says otherwise.
UniProt O96013: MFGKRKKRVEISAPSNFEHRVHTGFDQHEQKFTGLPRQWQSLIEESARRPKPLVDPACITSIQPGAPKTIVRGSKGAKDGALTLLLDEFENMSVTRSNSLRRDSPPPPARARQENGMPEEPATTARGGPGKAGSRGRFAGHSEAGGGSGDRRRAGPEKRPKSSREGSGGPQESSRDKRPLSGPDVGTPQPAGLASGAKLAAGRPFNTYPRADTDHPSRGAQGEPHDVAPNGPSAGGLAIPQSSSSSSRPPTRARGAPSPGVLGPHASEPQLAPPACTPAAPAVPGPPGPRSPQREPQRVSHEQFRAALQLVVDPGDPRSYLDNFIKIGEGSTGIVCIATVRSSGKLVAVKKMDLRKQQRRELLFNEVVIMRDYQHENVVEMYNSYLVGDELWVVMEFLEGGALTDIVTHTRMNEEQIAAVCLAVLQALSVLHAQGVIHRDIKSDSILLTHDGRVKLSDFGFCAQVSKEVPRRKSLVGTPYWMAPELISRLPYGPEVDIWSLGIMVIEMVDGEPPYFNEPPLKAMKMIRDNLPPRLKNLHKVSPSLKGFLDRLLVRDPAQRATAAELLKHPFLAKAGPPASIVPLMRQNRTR
UniProt P62136, whole entry, looked up: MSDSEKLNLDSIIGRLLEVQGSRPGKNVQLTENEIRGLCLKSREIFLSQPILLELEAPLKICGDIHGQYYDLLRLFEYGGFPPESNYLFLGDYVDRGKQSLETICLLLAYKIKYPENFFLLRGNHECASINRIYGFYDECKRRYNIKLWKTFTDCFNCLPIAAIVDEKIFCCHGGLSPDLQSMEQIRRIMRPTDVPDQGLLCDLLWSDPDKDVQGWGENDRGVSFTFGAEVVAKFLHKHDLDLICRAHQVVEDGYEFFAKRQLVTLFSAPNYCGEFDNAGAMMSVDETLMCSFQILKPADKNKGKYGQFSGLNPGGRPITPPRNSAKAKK
UniProt P18031: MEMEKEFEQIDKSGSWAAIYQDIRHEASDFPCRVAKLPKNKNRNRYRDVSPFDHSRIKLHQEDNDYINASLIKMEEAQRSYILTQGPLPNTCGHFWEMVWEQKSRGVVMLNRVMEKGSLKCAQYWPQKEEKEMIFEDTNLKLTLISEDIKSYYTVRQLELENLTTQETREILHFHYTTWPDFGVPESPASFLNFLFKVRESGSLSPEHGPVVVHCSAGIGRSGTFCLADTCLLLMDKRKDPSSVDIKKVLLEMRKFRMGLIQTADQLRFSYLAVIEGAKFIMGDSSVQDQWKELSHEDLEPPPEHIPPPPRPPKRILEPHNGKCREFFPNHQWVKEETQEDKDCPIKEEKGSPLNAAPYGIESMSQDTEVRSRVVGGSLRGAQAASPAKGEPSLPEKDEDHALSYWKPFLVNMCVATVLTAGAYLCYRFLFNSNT
UniProt P51955: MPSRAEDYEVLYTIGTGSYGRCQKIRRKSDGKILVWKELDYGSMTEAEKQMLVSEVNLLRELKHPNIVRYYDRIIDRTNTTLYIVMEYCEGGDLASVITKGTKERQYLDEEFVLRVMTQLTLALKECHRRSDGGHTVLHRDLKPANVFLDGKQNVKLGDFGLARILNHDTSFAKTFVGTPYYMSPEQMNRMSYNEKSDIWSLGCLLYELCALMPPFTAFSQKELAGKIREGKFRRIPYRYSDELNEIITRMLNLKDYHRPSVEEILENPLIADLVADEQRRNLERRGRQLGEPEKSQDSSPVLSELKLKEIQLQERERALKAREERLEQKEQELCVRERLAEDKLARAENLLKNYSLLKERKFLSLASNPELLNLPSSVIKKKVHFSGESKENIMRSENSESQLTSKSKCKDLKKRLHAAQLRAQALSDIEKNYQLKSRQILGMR
UniProt P14780: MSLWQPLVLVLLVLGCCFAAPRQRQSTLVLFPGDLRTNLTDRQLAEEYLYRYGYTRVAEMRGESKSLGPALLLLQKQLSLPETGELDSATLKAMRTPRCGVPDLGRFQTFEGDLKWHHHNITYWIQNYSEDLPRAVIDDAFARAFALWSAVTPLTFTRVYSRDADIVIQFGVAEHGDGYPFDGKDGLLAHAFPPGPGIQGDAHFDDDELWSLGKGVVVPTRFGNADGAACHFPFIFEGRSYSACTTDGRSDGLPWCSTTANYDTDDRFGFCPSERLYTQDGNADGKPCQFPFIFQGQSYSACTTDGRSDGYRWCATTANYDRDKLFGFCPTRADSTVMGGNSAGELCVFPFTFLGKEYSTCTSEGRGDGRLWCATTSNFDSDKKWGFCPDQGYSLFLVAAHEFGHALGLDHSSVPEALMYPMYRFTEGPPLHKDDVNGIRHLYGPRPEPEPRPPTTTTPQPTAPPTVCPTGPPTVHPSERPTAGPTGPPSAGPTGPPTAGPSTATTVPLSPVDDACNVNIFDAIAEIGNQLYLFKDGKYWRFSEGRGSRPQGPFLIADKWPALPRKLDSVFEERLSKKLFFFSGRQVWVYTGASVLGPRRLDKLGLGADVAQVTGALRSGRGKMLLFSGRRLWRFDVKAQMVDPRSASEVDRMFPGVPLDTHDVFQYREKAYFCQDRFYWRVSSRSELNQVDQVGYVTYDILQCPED
UniProt P42336, whole entry, looked up: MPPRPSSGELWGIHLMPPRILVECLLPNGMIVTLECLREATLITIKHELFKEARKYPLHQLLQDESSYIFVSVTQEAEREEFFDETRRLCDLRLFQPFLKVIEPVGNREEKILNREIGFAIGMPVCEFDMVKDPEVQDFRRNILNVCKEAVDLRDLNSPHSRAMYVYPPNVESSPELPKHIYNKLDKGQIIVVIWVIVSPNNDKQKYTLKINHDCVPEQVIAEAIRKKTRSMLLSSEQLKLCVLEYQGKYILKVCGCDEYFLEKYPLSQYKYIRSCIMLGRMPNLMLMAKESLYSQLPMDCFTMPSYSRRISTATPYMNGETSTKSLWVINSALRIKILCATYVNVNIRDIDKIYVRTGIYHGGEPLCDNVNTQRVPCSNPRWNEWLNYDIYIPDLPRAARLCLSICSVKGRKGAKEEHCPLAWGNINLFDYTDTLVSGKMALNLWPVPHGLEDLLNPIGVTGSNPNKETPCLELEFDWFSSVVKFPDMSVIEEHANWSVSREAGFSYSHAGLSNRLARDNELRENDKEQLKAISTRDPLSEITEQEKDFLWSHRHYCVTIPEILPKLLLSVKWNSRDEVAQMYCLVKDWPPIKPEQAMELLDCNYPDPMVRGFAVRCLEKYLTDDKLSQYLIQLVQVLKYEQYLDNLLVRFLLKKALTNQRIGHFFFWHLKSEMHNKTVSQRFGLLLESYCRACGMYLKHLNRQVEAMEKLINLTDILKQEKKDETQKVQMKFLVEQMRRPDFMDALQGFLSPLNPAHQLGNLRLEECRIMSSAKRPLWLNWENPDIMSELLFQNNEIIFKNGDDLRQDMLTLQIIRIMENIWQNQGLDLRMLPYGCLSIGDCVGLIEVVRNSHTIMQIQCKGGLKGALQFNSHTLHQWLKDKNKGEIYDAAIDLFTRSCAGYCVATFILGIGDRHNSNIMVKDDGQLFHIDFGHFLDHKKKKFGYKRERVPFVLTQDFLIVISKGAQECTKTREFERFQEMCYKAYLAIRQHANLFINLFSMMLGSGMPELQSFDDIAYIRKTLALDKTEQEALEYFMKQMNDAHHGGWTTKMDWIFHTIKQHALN
UniProt Q9Y233: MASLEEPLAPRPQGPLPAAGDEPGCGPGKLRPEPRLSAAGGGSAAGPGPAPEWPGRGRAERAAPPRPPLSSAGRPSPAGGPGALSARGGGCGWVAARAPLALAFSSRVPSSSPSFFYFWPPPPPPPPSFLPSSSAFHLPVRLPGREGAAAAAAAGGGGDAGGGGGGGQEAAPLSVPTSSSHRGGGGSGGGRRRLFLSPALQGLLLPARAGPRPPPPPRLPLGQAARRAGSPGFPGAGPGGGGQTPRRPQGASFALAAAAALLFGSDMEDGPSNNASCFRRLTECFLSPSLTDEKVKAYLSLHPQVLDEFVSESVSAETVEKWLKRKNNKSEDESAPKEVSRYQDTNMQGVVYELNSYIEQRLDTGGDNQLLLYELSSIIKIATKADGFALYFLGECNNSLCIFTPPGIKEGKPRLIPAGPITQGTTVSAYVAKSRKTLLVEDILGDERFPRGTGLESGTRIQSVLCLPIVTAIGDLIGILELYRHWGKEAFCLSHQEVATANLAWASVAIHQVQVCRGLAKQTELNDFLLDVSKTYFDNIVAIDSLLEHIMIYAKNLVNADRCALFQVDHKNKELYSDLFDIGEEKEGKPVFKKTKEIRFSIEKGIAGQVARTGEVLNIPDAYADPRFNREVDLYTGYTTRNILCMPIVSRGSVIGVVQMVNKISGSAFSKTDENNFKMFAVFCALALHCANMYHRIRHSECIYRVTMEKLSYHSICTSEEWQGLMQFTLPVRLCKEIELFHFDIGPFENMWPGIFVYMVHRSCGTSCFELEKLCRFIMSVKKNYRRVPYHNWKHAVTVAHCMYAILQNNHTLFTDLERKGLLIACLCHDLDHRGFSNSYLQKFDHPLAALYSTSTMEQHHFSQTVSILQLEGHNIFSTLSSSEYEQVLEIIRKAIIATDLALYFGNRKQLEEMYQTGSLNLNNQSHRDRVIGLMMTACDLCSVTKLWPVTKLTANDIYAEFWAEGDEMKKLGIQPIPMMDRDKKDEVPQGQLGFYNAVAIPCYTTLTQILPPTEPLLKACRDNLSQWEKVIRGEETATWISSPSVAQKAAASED

How the values were obtained:
[1] = biological target: human p21 Activated Kinase 4 (PAK4), PAK4 (gene 10298) (UniProt O96013); assay: NVS_ENZ_hPAK4: NovaScreen (NVS) Enzymatic Assay for human p21 Activated Kinase 4 (PAK4) (AID 2283189)
Experimental: (§1) NVS_ENZ_hPAK4 is a biochemical, single-readout assay that uses extracted gene-proteins in a cell-free assay. Measurements were taken 1 hour after chemical dosing in a 384-well plate.NVS_ENZ_hPAK4 is one of one assay component(s) measured or calculated from the NVS_ENZ_hPAK4 assay. It is designed to make measurements of enzyme activity, a form of enzyme reporter, as detected with fluorescence intensity signals by Fluorescence and electrophoretic mobility shift technology.Data from the assay component NVS_ENZ_hPAK4 was analyzed into 1 assay endpoint. This assay endpoint, NVS_ENZ_hPAK4, was analyzed in the positive analysis fitting direction relative to DMSO as the negative control and baseline of activity. Using a type of enzyme reporter, loss-of-signal activity can be used to understand changes in the enzymatic activity as they relate to the gene PAK4. Furthermore, this assay endpoint can be referred to as a primary readout, because this assay has produced multiple assay endpoints where this one serves a enzymatic activity function. To generalize the intended target to other relatable targets, this assay endpoint is annotated to the kinase intended target family, where the subfamily is serine/threonine kinase. […]

[2] = biological target: cAMP-dependent protein kinase catalytic subunit alpha (Homo sapiens) (UniProt P17612); assay: NVS_ENZ_hPKA: NovaScreen (NVS) Enzymatic Assay for human Protein Kinase A (PKA) (AID 2283192)
Experimental: as §1, with “NVS_ENZ_hPKA” for “NVS_ENZ_hPAK4”, “plate.NVS_ENZ_hPKA” for “plate.NVS_ENZ_hPAK4”, “NVS_ENZ_hPKA,” for “NVS_ENZ_hPAK4,”, “PRKACA.” for “PAK4.”

[3] = biological target: human Phosphodiesterase 5 (PDE5), PDE5A (gene 8654) (UniProt O76074); assay: NVS_ENZ_hPDE5: NovaScreen (NVS) Enzymatic Assay for human Phosphodiesterase 5 (PDE5) (AID 2283194)
Method in brief: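 Screening began in duplicate at 25 uM, with actives taken into concentration-response. Enzyme activity of recombinant PDE5 toward its substrate was measured at 1 h by fluorescence mobility-shift detection, relative to DMSO controls.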

[4] = biological target: Serine/threonine-protein phosphatase PP1-alpha catalytic subunit (Homo sapiens) (UniProt P62136); assay: NVS_ENZ_hPPP1CA: NovaScreen (NVS) Enzymatic Assay for human Protein Phosphatase 1 Aatalytic subunit Alpha (PPP1CA) (AID 2283200)
Method in brief: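 Chemicals were first screened in duplicate at 25 uM, and those passing threshold (e.g. 30% inhibition) were run as concentration series to 50 uM. Cell-free recombinant protein, 1.33 h read, fluorescent substrate/product mobility-shift detection, normalised to DMSO.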

[5] = biological target: human Protein Tyrosine Phosphatase Non-receptor Type 1 (PTPN1), PTPN1 (gene 5770) (UniProt P18031); assay: NVS_ENZ_hPTPN1: NovaScreen (NVS) Enzymatic Assay for human Protein Tyrosine Phosphatase Non-receptor Type 1 (PTPN1) (AID 2283201)
Method in brief: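 Chemicals were first tested in duplicate at 25 uM, and those passing threshold went on to singleton concentration series topping at 50 uM. Recombinant enzyme, specific substrate, product separated by mobility shift, fluorescence read at 1.33 h; activity loss relative to DMSO.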

[6] = biological target: Tyrosine-protein phosphatase non-receptor type 11 (Homo sapiens) (UniProt Q06124); assay: NVS_ENZ_hPTPN11: NovaScreen (NVS) Enzymatic Assay for human Protein Tyrosine Phosphatase Non-receptor Type 11 (PTPN11) (AID 2283202)
Method in brief: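 Compounds first tested in duplicate at 25 uM; those reaching ~30% inhibition rerun in singleton concentration-response, top 50 uM. Phosphatase activity measured after 0.5 h by fluorescence with mobility-shift separation, relative to DMSO.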

[7] = biological target: human NIMA (Never In Mitosis Gene A)-Related Kinase 2 (NEK2), NEK2 (gene 4751) (UniProt P51955); assay: NVS_ENZ_hNEK2: NovaScreen (NVS) Enzymatic Assay for human NIMA (Never In Mitosis Gene A)-Related Kinase 2 (NEK2) (AID 2283188)
Method in brief: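 Compounds were first screened in duplicate at 25 uM, with actives followed up in concentration series. Recombinant NEK2 activity, cell-free, was read 1 h after dosing by fluorescence intensity after mobility-shift separation. Signal loss was scored against DMSO.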

[8] = biological target: human Matrix Metalloproteinase-9 (MMP9), MMP9 (gene 4318) (UniProt P14780); assay: NVS_ENZ_hMMP9: NovaScreen (NVS) Enzymatic Assay for human Matrix Metalloproteinase-9 (MMP9) (AID 2283190);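 note: cell-free recombinant MMP9 protease activity read by fluorescent substrate signal; active means inhibition seen as loss of fluorescence signal versus DMSO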
Method in brief: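 Inhibition was scored as loss of fluorescence signal against DMSO controls. The recombinant protease was exposed to chemicals for 1 hour before reading; initial testing used 25 uM in duplicate.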

[9] = biological target: human Phosphoinositide 3-kinase alpha (PI3Ka), PIK3CA (gene 5290) (UniProt P42336); assay: NVS_ENZ_hPI3Ka: NovaScreen (NVS) Enzymatic Assay for human Phosphoinositide 3-kinase alpha (PI3Ka) (AID 2283196)
Method in brief: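 Chemicals were first screened at 25 uM in duplicate, then hits were run as concentration series up to 50 uM. Enzyme activity was measured by fluorescence after mobility-shift separation, with loss of signal relative to DMSO taken as activity.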

[10] = biological target: human Phosphodiesterase 10 (PDE10), PDE10A (gene 10846) (UniProt Q9Y233); assay: NVS_ENZ_hPDE10: NovaScreen (NVS) Enzymatic Assay for human Phosphodiesterase 10 (PDE10) (AID 2283195)
Method in brief: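 Fluorescence readout after mobility-shift separation of substrate and product, 1 h reaction with recombinant human enzyme. Single-concentration duplicates at 25 uM, then concentration-response up to 50 uM for chemicals reaching threshold; DMSO baseline.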

Measured: outcome

Cc1cc([N+](=O)[O-])cc([N+](=O)[O-])c1O
inactive: [1] | [2] | [3] | [4] | [5] | [6]

CC(C)OP(=S)(OC(C)C)SCCNS(=O)(=O)c1ccccc1
inactive: [7] | [8] | [9] | [4]

CCCCOP(OCCCC)OCCCC
inactive: [10]

CCCCO[P+](=O)OCCCC
inactive: [10] | [9]
